Measured values: US20030149011A1, “Methods and reagents for extracorporeal immunomodulatory therapy” (published 2003)

Key:
PBMCs [1] = experiment: PHA blastogenesis (PHA-induced proliferation, [3H]-thymidine incorporation)
PBMCs [2] = experiment: TUNEL staining assay (fragmented DNA); conditions: after 20 hours incubation, relative to mitomycin C treated cells
PBMCs [3] = experiment: Mixed lymphocyte culture (MLC), treated PBMCs as responder or stimulator cells
DBA/2 recipients = experiment: IgG alloantibody response to donor antigens, C57BL/6 donor cells and DBA/2 recipients; conditions: treatment of donor cells
murine spleen cells = experiment: Phorbol ester activation of treated murine spleen cells (CD69 expression); conditions: 0.1% for 1 hour in vitro
B6D2F1 hybrid mice [4] = experiment: Murine GVHD model, chronic GVHD: DBA/2 parental splenocytes injected into B6D2F1 hybrid recipients
PBMCs [5] = experiment: Annexin V / propidium iodide staining for apoptosis
B6D2F1 hybrid mice [6] = experiment: Murine TAGVHD model, acute GVHD: C57BL/6 parental splenocytes injected into B6D2F1 hybrid recipients
[7] = tested on: PBMCs in whole human blood; experiment: Enumeration and differential analysis of PBMCs in ethyleneimine oligomer-treated whole blood
murine splenocytes = experiment: Proliferative response of treated murine splenocytes to ConA or allogeneic cells, and as stimulator cells; conditions: 0.1% for 1 hour in vitro
[8] = whole human blood incubated 6 hours with 0.1%

In the case of `C1CN1`, the “Inhibition of PBMC proliferative response to PHA” value (PBMCs [1]; about 0.1%, one hour incubation) was “sufficient to completely inhibit the proliferative response”, the PHA proliferation (PBMCs [1]; blood incubated 6 hours with 0.1%, thymidine incorporation day 3) was 242 ± 48 cpm and the “Concentration sufficient to achieve complete inhibition of PHA-induced proliferation” value (PBMCs [1]; dose curves using smaller increments) was “about 0.01%”. The TUNEL staining (PBMCs [2]) was “greatly increased TUNEL staining”, the Proliferation (PBMCs [3]; responder cells treated (0.1%, three hours), allogeneic Mitomycin C-treated stimulator cells) was 527 ± 100 and the Proliferation (PBMCs [3]; responder cells treated (0.1%, three hours), syngeneic Mitomycin C-treated stimulator cells) was 531 ± 145. The “Response of treated PBMC to allogeneic stimulator cells” value (PBMCs [3]; treated cells as responders) was “totally abrogate the response”, the “Ability of treated cells to stimulate responder cells in the MLC” value (PBMCs [3]; treated cells as stimulators) was “unable to stimulate the responder cells to proliferate” and the Proliferation (PBMCs [3]; untreated responder cells, allogeneic stimulator cells treated with the substance) was 504 ± 214. For the same compound, the Proliferation (PBMCs [3]; untreated responder cells, syngeneic stimulator cells treated with the substance) was 443 ± 23, the “Effect on levels of IgG alloantibodies” value (DBA/2 recipients) was “significantly lower levels of IgG alloantibodies” and the “Phorbol ester activation and upregulation of CD69 expression” value (murine spleen cells) was “failure of phorbol ester to activate cells and induce the upregulation of CD69 expression”. The Effect on splenomegaly (B6D2F1 hybrid mice [4]; DBA/2 donor cells) was “inhibition of splenomegaly”, the “Effect on generalized immunoglobulin production” value (B6D2F1 hybrid mice [4]; DBA/2 donor cells, compared to untreated controls) was “decrease in generalized immunoglobulin production” and the “Immunoglobulin Production (treated/control)” value (B6D2F1 hybrid mice [4]; donor DBA/2 cells treated) was 1.04 ± .034. For the same compound, the Spleen mass (B6D2F1 hybrid mice [4]; donor DBA/2 cells treated) was 0.064 ± 0.01 mg, the “Apoptotic cells (annexin V / propidium iodide staining)” value (PBMCs [5]; 0.1%, 20 hours in vitro culture, relative to mitomycin C treated cells) was “much higher numbers of apoptotic cells” and the “Time to apoptosis following treatment” value (PBMCs [5]; PBMCs in treated blood) was at most 24 h. For the same compound, the “Effect on CTL activity” value (B6D2F1 hybrid mice [6]; C57BL/6 donor cells) was “inhibition of CTL activity”, the Effect on splenomegaly (B6D2F1 hybrid mice [6]; C57BL/6 donor cells) was “inhibition of splenomegaly” and the “Immunoglobulin Production (treated/control)” value (B6D2F1 hybrid mice [6]; donor C57BL/6 cells treated) was 0.83 ± 0.37. The Spleen mass (B6D2F1 hybrid mice [6]; donor C57BL/6 cells treated) was 0.065 ± 0.013 mg, the “Effect on cell count” value ([7]; highest concentration tested (about 0.1%), longest time tested (6 hours)) was “did not affect cell count” and the Bands [7, 8] was 2%. For the same compound, the Basophiles [7, 8] was 0%, the Eosinophils [7, 8] was 2% and the Lymphocytes [7, 8] was 20%. For the same compound, the Monocytes [7, 8] was 4%, the PMN [7, 8] was 72% and the PBMCs ([7]; whole human blood incubated 6 hours with 0.1%, room temperature) was 7.6 thousands/mm^3. For the same compound, the “Proliferative response of splenocytes to mitogen ConA stimulation or allogeneic stimulator cells” value (murine splenocytes) was “abrogates the proliferative response” and the “Stimulation of proliferation of allogeneic responder cells by treated cells” value (murine splenocytes) was “do not stimulate proliferation”.
